This is a selection; strong and weak results do not stand in their true shares. Active and inactive are the calls of the source. No stated cut-off is given here; in the data, active means growth inhibition above about 70%; inactive means the rest.
Columns and labels:
[1] = NCI Yeast Anticancer Drug Screen. Data for the rad50 strain (AID 155);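 further: 0% = growth of vehicle-only cultures of the same strain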; conditions: S. cerevisiae rad50 strain growth inhibition; at 50.0 µM; hits give high values
[2] = NCI Yeast Anticancer Drug Screen. Data for the mec2-1 strain (AID 157); conditions: S. cerevisiae mec2-1 strain, at 50.0 µM, hits give high values
[3] = NCI Yeast Anticancer Drug Screen. Data for the sgs1 mgt1 strain (AID 161);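 further: 0% = growth of cultures given vehicle only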; conditions: S. cerevisiae sgs1 mgt1 strain, at 50.0 µM, hits give high values
[4] = NCI Yeast Anticancer Drug Screen. Data for the cln2 rad14 strain (AID 165);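 further: 0% = growth equal to vehicle treated cultures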; conditions: S. cerevisiae cln2 rad14 strain, at 50.0 µM, hits give high values
[5] = NCI Yeast Anticancer Drug Screen. Data for the bub3 strain (AID 167); conditions: S. cerevisiae bub3 mutant strain, at 50.0 µM, hits give high values
[6] = NCI Yeast Anticancer Drug Screen. Data for the mlh1 rad18 strain (AID 175); conditions: S. cerevisiae mlh1 rad18 strain growth inhibition; at 50.0 µM; hits give high values

SMILES	growth inhibition [1]	growth inhibition [2]	growth inhibition [3]	growth inhibition [4]	growth inhibition [5]	growth inhibition [6]
CC(C)[C@@H]1[C@H](C)[N+]1(C)C	inactive: 7.1%	inactive: -9.8%	inactive: 14.8%	inactive: -34.5%	inactive: 0%	inactive: 13.4%
O=C1C(F)=C(NCCBr)C(=O)C(F)=C1NCCBr	inactive: 8.95%	inactive: -5.25%	inactive: 11.1%	inactive: 25.8%	inactive: 21.9%	inactive: 33.7%
Cc1ccc2cc(N(CCI)CCI)ccc2c1	inactive: 43%	inactive: 11.6%	inactive: 18.6%	inactive: 28.6%	inactive: -9%	inactive: 40.2%
O=[As](O)(O)c1ccc(O)cc1	inactive: -13.9%	inactive: -10.3%	inactive: 12.6%	inactive: -44.1%	inactive: -21.8%	inactive: -14.6%
C[N+]1(CCCC[N+]2(C)CCCCCC2)CCCCCC1	inactive: -9.3%	inactive: -10.3%	inactive: -24.7%	inactive: -22.9%	inactive: 14.2%	inactive: -26.4%
CC(Cl)C[N+](C)(Cc1ccccc1[N+](=O)[O-])CC(C)Cl (stereo unspecified)	inactive: -33.4%	inactive: -6.9%	inactive: -12.3%	inactive: -8.95%	inactive: 10.8%	inactive: -19.2%
O=C(OCc1ccc([N+](=O)[O-])cc1)Oc1c(Cl)cc([N+](=O)[O-])cc1[N+](=O)[O-]	inactive: -7.75%	inactive: -57.3%	inactive: 5.2%	inactive: -12.2%	inactive: 15.6%	inactive: 35.2%
N#CC(O)CCOP(N)(=O)N(CCCl)CCCl (stereo unspecified)	inactive: 61.5%	inactive: 60.6%	active: 75.3%	inactive: 68.7%	inactive: 36.1%	inactive: 34.5%
O=P1(Oc2ccccc2)NNP2(=NP(Cl)(Cl)=NP(Cl)(Cl)=N2)NN1 (stereo unspecified)	inactive: 7.35%	inactive: -3.5%	inactive: -21.9%	inactive: -22.3%	inactive: 0.1%	inactive: 13.5%
O=C(c1ccccc1)C1CCCN2CCCCC12 (stereo unspecified)	inactive: 19.8%	inactive: 3.85%	inactive: 18.8%	inactive: 15.9%	inactive: -2.55%	inactive: 8%
N/C(=N\N=C\c1ccc([N+](=O)[O-])o1)N[N+](=O)[O-]	inactive: 29.3%	inactive: 16.1%	inactive: 15.5%	inactive: 16.5%	inactive: 15%	inactive: 24.9%
CN(C)CC(c1ccccc1)C1(O)CCCC1 (stereo unspecified)	inactive: 18.6%	inactive: 1.5%	inactive: 33.4%	inactive: 51.1%	inactive: -4.35%	inactive: 15%
ClC1=C(Cl)C2(Cl)C3C(SC4C3C3(Cl)C(Cl)=C(Cl)C4(Cl)C3(Cl)Cl)C1(Cl)C2(Cl)Cl (stereo unspecified)	inactive: -0.8%	inactive: 9.9%	inactive: -14.8%	inactive: -17.4%	inactive: -14.2%	inactive: 2.85%
O=P1(N(CCCl)CCCl)Nc2ccccc2CO1 (stereo unspecified)	inactive: -4.7%	inactive: 33.5%	inactive: -0.95%	inactive: -8.6%	inactive: 31.5%	inactive: -5%
ClCCN(C1CCCCC1)C1CCCCC1	inactive: -8.1%	inactive: -6.65%	inactive: 11.4%	inactive: -11.8%	inactive: -11.8%	inactive: -5.75%
O=C(O)c1ccccc1[As](=O)(O)O	inactive: 4.05%	inactive: -2.65%	inactive: -6.25%	inactive: 5.8%	inactive: -44.6%	inactive: -25.7%
O=P1(N(CCCl)CCCl)NC(CO)CO1 (stereo unspecified)	inactive: -7.35%	inactive: 12%	inactive: -1.5%	inactive: -23.6%	inactive: 8.65%	inactive: 19.7%
COc1ccc(CNCCCl)cc1OC	inactive: -3.2%	inactive: -4.95%	inactive: 1.9%	inactive: -8.5%	inactive: 9.55%	inactive: -19%
Cc1ccc(C)c(S(=O)(=O)N(CCCl)CCCl)c1	inactive: -30.6%	inactive: 6.3%	inactive: 13%	inactive: -38.5%	inactive: 20.7%	inactive: 16.9%
CCCCCCCCCCCCCCCCCC(=O)OCC(COP(=O)(Oc1ccccc1)N(CCCl)CCCl)OC(=O)CCCCCCCCCCCCCCCCC (stereo unspecified)	inactive: 5.35%	inactive: 7.55%	inactive: 7.85%	inactive: -1.35%	inactive: -3.2%	inactive: 7.8%
CN(CCCl)c1ccccc1	inactive: -14%	inactive: 1.35%	inactive: -15.2%	inactive: -14.4%	inactive: -14.2%	inactive: -27.7%

SMILES	growth inhibition [1]	growth inhibition [2]	growth inhibition [3]	growth inhibition [4]	growth inhibition [5]	growth inhibition [6]
CCCCNCCCC	inactive: 1.3%	inactive: 0.95%	inactive: 2.45%	inactive: -9.35%	inactive: -6.95%	inactive: -1.05%
[O-][n+]1nccnc1N1CC1	inactive: 4.05%	inactive: 9.75%	inactive: 1.95%	inactive: 4.15%	inactive: -18.4%	inactive: -2.8%
NS(=O)(=O)Cc1ccc([As](=O)(O)O)cc1	inactive: -2.55%	inactive: -26.9%	inactive: -38.4%	inactive: -15%	inactive: -51.2%	inactive: -1.65%
Cc1ccc(CNCCCl)cc1	inactive: 45.5%	inactive: 40.6%	inactive: 42.1%	inactive: 19.3%	inactive: 39.8%	inactive: 41.4%
N/C=N/P(=O)(Oc1ccccc1)Oc1ccccc1	inactive: 25.6%	inactive: 19.3%	inactive: 9.25%	inactive: 8.65%	inactive: 7.1%	inactive: 8.5%
CCCNCCN(CCC)C(=N)C(=N)N(CCC)CCNCCC	inactive: 14.2%	inactive: 7.8%	inactive: 39.7%	inactive: -3.85%	inactive: 0.7%	inactive: 36.1%
Clc1ccc(P(Cl)Cl)cc1	inactive: 6.2%	inactive: -26.2%	inactive: 6.75%	inactive: 1.95%	inactive: -12.8%	inactive: -5.2%
CCOC(=O)NC(C)(CC(C)(NC(=O)OCC)P(=O)(O)Nc1ncn[nH]1)P(=O)(O)Nc1ncn[nH]1 (stereo unspecified)	inactive: 13.8%	inactive: 3.35%	inactive: 12.3%	inactive: 3.7%	inactive: 15.8%	inactive: 14.3%
BrC1C2(SCCS2)[C@@H]2C[C@@H](c3ccccc32)C12SCCS2 (stereo partly specified)	inactive: 22.9%	inactive: 0.75%	inactive: -8.3%	inactive: -10.3%	inactive: 12%	inactive: 6.6%
CC(=O)SCC(Cl)Cl	inactive: -2.45%	inactive: -0.45%	inactive: 3.45%	inactive: -14.4%	inactive: 14.9%	inactive: -1.7%
O=C(OOC(=O)c1ccc([N+](=O)[O-])cc1)c1ccc([N+](=O)[O-])cc1	inactive: 3.55%	inactive: -25.9%	inactive: -5.95%	inactive: 20.5%	inactive: -0.05%	inactive: 15.2%
CCOP(=O)(NC(=S)NNC(=O)c1ccncc1)OCC	inactive: -2.15%	inactive: 7.6%	inactive: 0.35%	inactive: -4.85%	inactive: 21.1%	inactive: -11.8%
Cn1c(COC(=O)N(CCCl)CCCl)cnc1[N+](=O)[O-]	inactive: -17.7%	inactive: 6.85%	inactive: -31.6%	inactive: 28.1%	inactive: 12.6%	inactive: 10.3%
O=C(Nc1ccc(Br)cc1)NP(=O)(Nc1ccccc1)Nc1ccccc1	inactive: -8.85%	inactive: 2.9%	inactive: -1.1%	inactive: -20.3%	inactive: 11.9%	inactive: -11.7%
Cc1ccc(OP(=S)(Cl)Cl)cc1	inactive: -11.1%	inactive: -19.1%	inactive: -11.4%	inactive: -6.05%	inactive: 21.1%	inactive: -0.7%
CCN(CCCl)Cc1ccc2ccccc2c1	inactive: -0.35%	inactive: -1.5%	inactive: 36%	inactive: -16.6%	inactive: 1.55%	inactive: 19.1%
O=[N+]([O-])c1cnc(N(CCCl)CCCl)s1	inactive: 20.6%	inactive: 9.05%	inactive: 20.9%	inactive: 38%	inactive: 3.7%	inactive: 36.2%
C[N+]1([O-])C2CCC1CC(OC(=O)C(CO)c1ccccc1)C2 (stereo unspecified)	inactive: 22.2%	inactive: 11.8%	inactive: 37.8%	inactive: -51.8%	inactive: 6.45%	inactive: 13.4%
O=P(OCC(O)CO)(Oc1ccccc1)N(CCCl)CCCl (stereo unspecified)	inactive: 11.5%	inactive: 8.9%	inactive: -4.05%	inactive: -35.5%	inactive: -0.95%	inactive: 4.9%
CN1CCCC(OC(=O)C(c2ccccc2)c2ccccc2)C1 (stereo unspecified)	inactive: 6.45%	inactive: 0.25%	inactive: -40.5%	inactive: 0%	inactive: -24.9%	inactive: -1.55%

Reference: PubChem BioAssay (NCI)
